Tests used:
A549 = assay: Antiproliferative activity against human A549 cell line by MTT assay after 72 hrs; type: functional, cell-based
How it was run: (§1)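 Human tumour cells, MCF7 (breast) and A549 (lung), were exposed to test compounds for 72 h, and growth was read by MTT assay. IC50 is the concentration giving 50% growth inhibition, taken as the mean of three independent experiments.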

MCF7 = assay: Antiproliferative activity against human MCF7 cell line by MTT assay after 72 hrs; type: functional, cell-based; how it was run: as §1

## CC[C@H](C)[C@H](NC(=O)[C@H](CCCCN)NC(=O)[C@@H](NC(=O)[C@H](CCC(N)=O)NC(=O)[C@@H](N)CCCNC(=N)N)[C@@H](C)CC)C(=O)N[C@@H](Cc1c[nH]c2ccccc12)C(=O)N[C@@H](Cc1ccccc1)C(=O)N[C@@H](CCC(N)=O)C(=O)N[C@@H](CC(N)=O)C(=O)N[C@@H](CCCNC(=N)N)C(=O)N[C@@H](CCCNC(=N)N)C(=O)N[C@@H](CCSC)C(=O)N[C@@H](CCCCN)C(=O)N[C@@H](Cc1c[nH]c2ccccc12)C(=O)N[C@@H](CCCCN)C(=O)N[C@@H](CCCCN)C(=O)O
A549
  IC50: Not Active
MCF7
  IC50: Not Active
